PubChem BioAssay AID2174 (The Scripps Research Institute Molecular Screening Center, 2009)
The list shows a part of the results, in another mix than the full data. Activity calls are given as the source filed them.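 How the source made its calls: active means inhibition above the mean of all tested compounds plus 3 SD, set per campaign (cut at about 14% in these data); inactive means the rest.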

By UniProt entry, the sequences of proteins in these tests, tags left out.
UniProt O75608, whole entry: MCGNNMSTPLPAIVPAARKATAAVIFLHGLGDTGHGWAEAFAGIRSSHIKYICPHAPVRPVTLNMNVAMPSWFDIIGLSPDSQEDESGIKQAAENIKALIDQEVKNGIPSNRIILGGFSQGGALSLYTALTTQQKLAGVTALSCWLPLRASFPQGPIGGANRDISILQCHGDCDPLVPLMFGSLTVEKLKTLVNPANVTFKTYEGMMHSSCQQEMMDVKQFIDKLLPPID

target: Acyl-protein thioesterase 1 (Homo sapiens) (UniProt O75608); test: LYPLA1 inhibitors, primary screen, counter-screen for PME1 inhibitor project, biochemical, fluorescence polarization, FP-Rh probe ABPP (AID 2174); conditions: recombinant LYPLA1, FP-Rh probe fluorescence polarization; at 5.9 µM; hits give high values;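 further: inhibitors block serine hydrolase probe labeling of LYPLA1 so polarization falls; 0% = enzyme with DMSO and 100% = wells lacking LYPLA1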

Row | Structure (SMILES) | inhibition
1 | COc1ccc(OP(C)(=O)Nc2cccc(F)c2)cc1 (stereo unspecified) | inactive: 1.51%
2 | COc1ccccc1OP(C)(=O)Nc1cc(Cl)ccc1C (stereo unspecified) | inactive: -0.37%
3 | Cc1cc(C)cc(OP(C)(N)=O)c1 (stereo unspecified) | inactive: -1.78%
4 | O=[N+]([O-])c1cc([N+](=O)[O-])c(Nc2cccnc2)c([N+](=O)[O-])c1 | inactive: 0.43%
5 | Cc1cccc(C)c1OP(C)(N)=O (stereo unspecified) | inactive: -1.08%
6 | CC(C)(C)c1ccc(OP(C)(=O)Nc2ccc(SC(F)(F)F)cc2)cc1 (stereo unspecified) | inactive: -1.69%
7 | O=[N+]([O-])c1ccc2c(c1)C=Nc1ccccc1O2 | inactive: 3.04%
8 | CCN(CC)CCCOC(=O)C(O)(c1ccccc1)c1ccccc1 | inactive: 2.77%
9 | Cc1cc(C)cc(OP(C)(=O)Nc2ccccn2)c1 (stereo unspecified) | inactive: 0.78%
10 | CP(=O)(Nc1cccc(Br)c1)Oc1ccccc1 (stereo unspecified) | inactive: 2.81%
11 | Cc1ccc(C)c(NP(C)(=O)Oc2ccccc2)c1 (stereo unspecified) | inactive: -0.94%
12 | COc1ccccc1OP(C)(=O)Nc1cccc(Br)c1 (stereo unspecified) | inactive: -0.81%
13 | Cc1cc(C)cc(OP(C)(=O)Nc2ccc(C)cc2C)c1 (stereo unspecified) | inactive: -2.25%
14 | CCOC(=O)c1ccc(NP(C)(=O)Oc2cc(C)cc(C)c2)cc1 (stereo unspecified) | inactive: 2.38%
15 | CC1=NCCc2c1[nH]c1ccccc21.O=[N+]([O-])c1cc([N+](=O)[O-])c(O)c([N+](=O)[O-])c1 | inactive: 0.02%
16 | O=C(O)c1cccc(Nc2c([N+](=O)[O-])cc([N+](=O)[O-])cc2[N+](=O)[O-])c1 | inactive: 0.67%
17 | CN1CCCCC1COC(=O)C1(O)c2ccccc2CCc2ccccc21 (stereo unspecified) | inactive: -1.63%
18 | COc1ccccc1OP(C)(=O)Nc1c(C)cccc1C (stereo unspecified) | inactive: -2.05%
19 | CCCOc1ccc(NP(C)(=O)Oc2ccc(Cl)cc2)cc1 (stereo unspecified) | inactive: -0.28%
20 | CP(=O)(Nc1ccc(SC(F)(F)F)cc1)Oc1ccccc1 (stereo unspecified) | inactive: -0.8%
21 | CCOC(=O)C(CC)C1=NC(C)(C)Cc2ccccc21.O=[N+]([O-])c1cc([N+](=O)[O-])c(O)c([N+](=O)[O-])c1 (stereo unspecified) | inactive: 0.75%
22 | CC1=C2N=C(C=C3N=C(C(C)=C4[N-][C@@](C)([C@@H]5N=C1[C@](C)(CCC(=O)NC[C@@H](C)OP(=O)([O-])O[C@H]1[C@@H](O)[C@@H](n6cnc7cc(C)c(C)cc76)O[C@@H]1CO)[C@H]5CC(N)=O)[C@@](C)(CC(N)=O)[C@@H]4CCC(N)=O)[C@@](C)(CC(N)=O)[C@@H]3CCC(N)=O)C(C)(C)[C@@H]2CCC(N)=O.[C-]#N.[Co+3] | inactive: -1.82%
23 | O=[N+]([O-])c1cc([N+](=O)[O-])c(Nc2nnnn2CCO)c([N+](=O)[O-])c1 | inactive: -2.88%
24 | O=[N+]([O-])c1cc([N+](=O)[O-])c(-c2cnn(-c3ccccc3)c2)c([N+](=O)[O-])c1 | inactive: 0.21%
25 | Cc1nc2ccc3ccccc3c2s1.O=[N+]([O-])c1cc([N+](=O)[O-])c(O)c([N+](=O)[O-])c1 | inactive: 1.06%
26 | O=[N+]([O-])c1cc([N+](=O)[O-])c(-n2nnc3ccccc32)c([N+](=O)[O-])c1 | inactive: 5.47%
